Consider one molecule from ChEMBL document CHEMBL4376815, “The Development Process for Discovery and Clinical Advancement of Modern Antimalarials” (J Med Chem, 2019).

The chains behind the UniProt entries cited, without tags or fusion partners.
UniProt P08684, whole entry: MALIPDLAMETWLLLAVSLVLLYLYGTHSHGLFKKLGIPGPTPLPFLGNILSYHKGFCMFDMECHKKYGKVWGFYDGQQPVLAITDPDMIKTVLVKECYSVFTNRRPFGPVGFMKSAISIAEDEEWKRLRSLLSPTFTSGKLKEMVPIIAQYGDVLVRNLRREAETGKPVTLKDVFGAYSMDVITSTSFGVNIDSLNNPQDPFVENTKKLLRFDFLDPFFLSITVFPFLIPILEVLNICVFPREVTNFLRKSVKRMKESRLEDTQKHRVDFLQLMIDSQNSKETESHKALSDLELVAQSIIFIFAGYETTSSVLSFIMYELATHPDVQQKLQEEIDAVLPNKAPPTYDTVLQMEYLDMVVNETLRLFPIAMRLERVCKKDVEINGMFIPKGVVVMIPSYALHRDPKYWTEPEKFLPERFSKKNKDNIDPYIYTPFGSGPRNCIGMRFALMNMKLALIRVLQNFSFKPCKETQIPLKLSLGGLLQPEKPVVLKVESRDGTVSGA

The structures appear in SMILES notation. pKi: −log10 of the molar value.

In this assay the target is Cytochrome P450 3A4 (Homo sapiens, UniProt P08684). Nature of the assay: Inhibition of CYP3A4 (unknown origin). It counts as ADME.

What is called pKi is the negative decadic logarithm of the Ki, by convention in mol/L. Take `CC1(C)c2nc(-c3ccc(F)cc3)c(Nc3ccc(F)cc3)n2CCN1C(=O)CN` [GANAPLACIDE]: the pKi is 6.81.
